Here are results for 2 compounds from PubChem BioAssay AID602147 (Vanderbilt Specialized Chemistry Center, 2011).

Amino acid sequences for entries named in this document (tags omitted). A change or cut given only in a name is not applied to a line headed by its entry.
UniProt O14939: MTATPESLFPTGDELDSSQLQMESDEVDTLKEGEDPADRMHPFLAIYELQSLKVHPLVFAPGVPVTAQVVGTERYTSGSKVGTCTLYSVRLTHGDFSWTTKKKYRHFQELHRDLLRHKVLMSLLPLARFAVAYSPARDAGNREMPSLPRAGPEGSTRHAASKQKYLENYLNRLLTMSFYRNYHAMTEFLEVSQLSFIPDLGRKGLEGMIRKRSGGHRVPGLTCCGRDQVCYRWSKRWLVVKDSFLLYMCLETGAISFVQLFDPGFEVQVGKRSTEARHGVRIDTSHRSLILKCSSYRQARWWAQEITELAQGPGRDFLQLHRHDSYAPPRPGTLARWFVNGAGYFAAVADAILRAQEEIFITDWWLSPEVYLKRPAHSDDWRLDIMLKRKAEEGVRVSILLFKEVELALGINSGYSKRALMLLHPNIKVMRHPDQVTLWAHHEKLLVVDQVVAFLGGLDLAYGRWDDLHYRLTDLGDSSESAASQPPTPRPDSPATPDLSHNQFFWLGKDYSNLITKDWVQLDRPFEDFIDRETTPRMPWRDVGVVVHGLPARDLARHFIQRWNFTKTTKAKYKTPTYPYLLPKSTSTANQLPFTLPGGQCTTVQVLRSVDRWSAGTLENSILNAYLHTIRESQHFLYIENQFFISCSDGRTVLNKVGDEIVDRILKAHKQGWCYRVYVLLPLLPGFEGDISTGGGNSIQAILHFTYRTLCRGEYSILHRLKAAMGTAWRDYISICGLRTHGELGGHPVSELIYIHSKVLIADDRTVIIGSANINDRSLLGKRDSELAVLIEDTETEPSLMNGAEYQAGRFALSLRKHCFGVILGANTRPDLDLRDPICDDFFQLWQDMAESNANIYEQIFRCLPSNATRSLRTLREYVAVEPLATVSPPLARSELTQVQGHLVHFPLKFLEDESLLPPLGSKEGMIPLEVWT

The test addresses Phospholipase D2 (Homo sapiens) (UniProt O14939). Briefly: cellular phospholipase D2 inhibition IC50 – cell-based, dose response (AID 602147). The conditions noted are these: cellular PLD2 activity assay, concentration response.

For orientation: IC50 means the concentration that gives 50% inhibition. On to `C[C@@H](CN1CCC2(CC1)C(=O)NCN2c1ccccc1)NC(=O)c1ccc2ccccc2c1`, for which the concentration for half-maximal inhibition (IC50) was 140 nM. The result for `O=C(NCCN1CCC2(CC1)C(=O)NCN2c1cccc(F)c1)c1ccc2ccccc2c1` reads 20 nM.
